The subject of assay [1] is J774.A1. Description: Antiproliferative activity against mouse J774A1 cells after 72 hrs by MTT conversion assay. In kind it is cell-based.
The test system of assay [2] is WEHI-164. Description: Antiproliferative activity against mouse WEHI164 cells after 72 hrs by MTT conversion assay. On the technique in general: Formazan colour is commonly taken as a measure of viable cells.

Each structure is given as a SMILES string.

In general, IC50 refers to the concentration that inhibits the measured activity by half. Read a high IC50 as weaker potency. On to `Sc1ncnc2nc[nH]c12`, for which the figures for the IC50 in assay [1] and in assay [2] were 3 nM and 15 nM, respectively.

These data come from ChEMBL document CHEMBL1158842, “Antiproliferative triterpene saponins from Entada africana” (J Nat Prod, 2006).
